Among the data in patent publication US20090042782A1, “Diagnostic and therapeutic strategies for conditions associated with the FLJ13639 gene” (priority 2005, published 2009) are solubility and green/red fluorescence ratio values, retold here.

Data set [1] is classed as physicochemical. From the text:
We successfully expressed the recombinant protein in BL21 bacteria and further purified the protein using NiNTA columns (using the binding capacity of a 6×His tag located before the TAT tag) (FIG. 8B.). This recombinant protein is referred to herein alternatively as “P1-TAT” and “FLJ13639/P1-TAT.” The amino acid sequence of P1-TAT is provide as SEQ ID NO:5. The sequence of the DNA encoding P1-TAT is provided as SEQ ID NO:14. FLJ13639 P1 was cloned into the expression vector using the forward primer having the sequence 5′[…] (SEQ ID NO:15) and the reverse primer having the sequence 5′[…] (SEQ ID NO:16). The P1-TAT protein is soluble in buffer containing salts and glycerol, and is suitable for administration by injection following high-grade purification.

The test system of another data set is HL60 cells. Description: JC-1 mitochondrial membrane potential staining, fluorescence microscopy. As to conditions: 20 ug of FLJP 1-TAT alone. Format: cell-based. The text has this:
FIG. 14A is a graphical representation of green/red fluorescence intensity ratio data measured for treatment of HL60/VDR cells (a vinctrisin resistant cell line) as indicated for the x-axis. * indicates statistical significance.
Disruption of the mitochondrial membrane potential (Δψm) is an early event associated with apoptosis and may be one of several factors responsible for cytochrome c release (17, 18). Using JC-1 mitochondrial potential sensor (Molecular Probes, Inc) staining and fluorescence microscopy, we analyzed the Δψm in VCR (vincristin) treated HL60 cells. In healthy cells, the dye accumulates and aggregates in mitochondria, where it fluoresces bright red. In apoptotic cells, however, it cannot enter mitochondria if the Δψm is altered and fluoresces bright green as a cytoplasmic monomer. Therefore, mitochondria depolarization is indicated by a decrease of the red/green fluorescence intensity ratio.

B1: P1-TAT: recombinant FLJ13639/P1 protein in frame with HIV TAT protein transduction domain and 6×Histidine tag; amino acid sequence SEQ ID NO:5 (protein)
chain: MRGSHHHHHHGMASMTGGQQMGRDLYDDDDKDRWGSKLGYGRKKRRQRRRGGSTMSGYPYDVPDYAGSMAGTGLESLYRSVVWFAKGLREYTKSGYESACKDFVPHDLEVQIPGRVFLVTGGNSGIGKATALEIAKRGGTVHLVCRDQAPAEDARGEIIRESGNQNIFLHIVDLSDPKQIWKFVENFKQEHKLHVLINNAGCMVNKRELTEDGLEKNFAANTLGVYILTTGLIPVLEKEHDPRVITVSSGGMLVQKLNTNDLQSERTPFDGTMVYAQNKRQQVVLTERWAQGHPAIHFSSMHPGWADTPGVRQAMPGFHARFGDRLRSEAQGADTMLWLALSSAAAAQPSGRFFQDRKPVSTHLPLATASSSPAEEEKLIEILEQLAQTFK
With B1, in data set [1], the solubility entry is given as “soluble”. Moreover, the green/red fluorescence ratio result in the data set with HL60 cells was “low green/red fluorescence ratio”.
